The source of these data is patent EP4834331A1, “SOLID DISPERSION OF P2X3 RECEPTOR ANTAGONIST AND PREPARATION PROCESS THEREOF” (dated 2026).

Data set [1] can be described thus: Rat pharmacokinetic assay. The settings on record: intragastrically administered with 10 mg/kg. The procedure:
For a rat pharmacokinetic assay, male SD rats (180 g to 240 g) were selected and fasted overnight. Three rats were intragastrically administered with 10 mg/kg. The blood of the rats was collected before the administration and at 15 min, 30 min, 1 h, 2 h, 4 h, 8 h, and 24 h after the administration. The blood samples were centrifuged at 4°C for 6 minutes at 8,000 r/min, and plasma was collected and stored at -20°C. Plasma at each time point was taken, and added with 3 to 5 times the amount of an internal standard-containing acetonitrile solution to mix, and the mixture was vortex mixed for 1 minute, and centrifuged at 4°C for 10 minutes at 13,000 r/min. The supernatant was taken and mixed with 3 times the amount of water, and an appropriate amount of the mixed solution was taken for LC-MS/MS analysis. The primary pharmacokinetic parameters were analyzed by WinNonlin 7.0 software non-atrioventricular model.

Data set [2] in a line: Mouse pharmacokinetic assay. The procedure: For a mouse pharmacokinetic assay, male ICR mice (20 g to 25 g) were selected and fasted overnight. Three mice were intragastrically administered with 10 mg/kg. The blood of the mice was collected before the administration and at 15 min, 30 min, 1 h, 2 h, 4 h, 8 h, and 24 h after the administration. The blood samples were 6,800 g and centrifuged at 4°C for 6 minutes, plasma was collected and stored at -80°C. Plasma at each time point was taken, and added with 3-5 times the amount of internal standard-containing acetonitrile to mix, and the mixture was vortex mixed for 1 minute, and centrifuged at 4°C for 10 minutes at 13,000 r/min. The supernatant was mixed with 3 times the amount of water, and an appropriate amount of the mixed solution was taken for LC-MS/MS analysis. The primary pharmacokinetic parameters were analyzed by WinNonlin 7.0 software non-atrioventricular model.

Data set [3] in a line: Solubility in dichloromethane/methanol system. The settings on record: dichloromethane/methanol system (volume ratio = 1:1). The procedure: This solvent system was used to prepare an amorphous solid dispersion thin film, and the experimental procedures are as follows: • 1) Thin films of the amorphous solid dispersions were prepared in 96-well plates according to the mass ratios listed in Table 4-1. A total of ten identical 96-well plates were prepared, with each well containing 400 µg of API (generally 10 times the maximum saturated solubility in physiological solutions). • 2) A total of ten 96-well plates were prepared via rapid solvent evaporation method, among which 8 plates were used for physiologically relevant dissolution tests, 1 plate for physical stability evaluation, and 1 plate served as the excipient control. The detailed information is shown in Table 4-1. • 3) Eight 96-well plates loaded with amorphous solid dispersion thin films were subjected to physiologically relevant dissolution tests.

A short description of data set [4]: Thermodynamic solubility test. The settings on record: FaSSGF pH 1.6, FaSSIF pH 6.5, PBS pH 7.4; 4 mg/mL, room temperature overnight. As for the experimental part:
Fasted state simulated gastric fluid (FaSSGF, pH 1.6, 80µM sodium taurocholate, 20µM lecithin, 0.1g pepsin and 34.2mM sodium chloride per liter of solution), fasted state simulated intestinal fluid (FaSSIF, pH 6.5, 3mM sodium taurocholate, 0.2mM lecithin, 38.4 mM sodium hydroxide, 68.62mM sodium chloride and 19.12mM maleic acid per liter of solution) and phosphate buffered saline (PBS, pH 7.4, 100mM phosphate buffer, 11g disodium hydrogen carbonate and 3.5g sodium dihydrogen phosphate dihydrate per liter of solution) as test buffers were prepared.
The compound was accurately weighed and diluted with the above test buffers of different pH values to prepare a working solution at 4 mg/mL. The mixture was shaken at 1000 rpm for 1 h and equilibrated at room temperature overnight. Thereafter, the sample was centrifuged at 12000 rpm for 10 min to remove undissolved particles. The supernatant was transferred into a new centrifuge tube, and the compound concentration in the supernatant was determined by LC-MS/MS.

The nature of data set [5]: Canine pharmacokinetic assay of compounds. The settings on record: for clearance: following intravenous administration; for Tmax: intragastric administration, 5 mg/kg; for systemic exposure: via both oral and intravenous routes. As for the experimental part:
For a canine pharmacokinetic assay, male Beagle dogs (8 kg to 10 kg) were selected and fasted overnight. Three Beagle dogs were intragastrically administered with 5 mg/kg. The blood of the dogs was collected before the administration and at 15 min, 30 min, 1 h, 2 h, 4 h, 8 h, and 24 h after the administration. Another 3 Beagle dogs were intravenously administered with 1 mg/kg. The blood of the dogs was collected before the administration and at 15 min, 30 min, 1 h, 2 h, 4 h, 8 h, and 24 h after the administration. The blood samples were centrifuged at 4°C for 6 minutes at 8,000 r/min, plasma was collected and stored at -20°C. Plasma at each time point was taken, added with 3 to 5 times the amount of internal standard-containing acetonitrile to mix, vortex mixed for 1 minute, and centrifuged at 4°C for 10 minutes at 13,000 r/min. The supernatant was taken and mixed with 3 times the amount of water, and an appropriate amount of the mixed solution was taken for LC-MS/MS analysis. The primary pharmacokinetic parameters were analyzed by WinNonlin 7.0 software non-atrioventricular model.

The mark [6] stands for this setting: mouse, intragastric administration, 10 mg/kg.
Setting [7] is: summary statement for rat, mouce and canine.

In the case of `Cc1cnc(-c2cc(O[C@@H](C)[C@@H](C)O)cc(C(=O)N[C@H](C)c3cnc(C(F)(F)F)nc3)c2F)s1`, the pharmacokinetic properties entry was “good and comparable pharmacokinetic properties” in data set [1]; “good and comparable pharmacokinetic properties” in data set [2] (setting [6]); “comparable pharmacokinetic properties” in data set [2] (setting [7]). Also, in data set [2] (setting [6]), the Tmax was found to be 0.50 h. Also, the solubility entry in data set [3] is “high solubility”; in data set [4], “good solubility”.

As for `Cc1cnc(-c2cc(O[C@H](C)[C@H](C)O)cc(C(=O)N[C@H](C)c3cnc(C(F)(F)F)nc3)c2F)s1`, the pharmacokinetic properties result in data set [1] was “good and comparable pharmacokinetic properties”. In addition, in data set [2] (setting [6]), the Tmax turned out to be 1.00 h; the pharmacokinetic properties entry is “good and comparable pharmacokinetic properties”. Further, the pharmacokinetic properties entry in data set [2] (setting [7]) was “comparable pharmacokinetic properties”. In data set [4], the solubility entry is “good solubility”. In data set [5], the half-lives result is “long half-lives”, the clearance entry was “low clearance”, the Tmax is 1.00 h and the systemic exposure result is given as “high systemic exposure”. This molecule gave a Vz in data set [5] (intravenous administration, 1 mg/kg) of 5.00 L/kg.

As to `Cc1cnc(-c2cc(O[C@@H](C)[C@H](C)O)cc(C(=O)N[C@H](C)c3cnc(C(F)(F)F)nc3)c2F)s1`, the pharmacokinetic properties result in data set [1] is “good and comparable pharmacokinetic properties”; in data set [2] (setting [6]), “good and comparable pharmacokinetic properties”; in data set [2] (setting [7]), “comparable pharmacokinetic properties”. For the same molecule, the Tmax in data set [2] (setting [6]) worked out at 0.50 h. The solubility result in data set [4] is given as “good solubility”.

Regarding `Cc1cnc(-c2cc(O[C@H](C)[C@@H](C)O)cc(C(=O)N[C@H](C)c3cnc(C(F)(F)F)nc3)c2F)s1`, the pharmacokinetic properties entry in data set [1] was “good and comparable pharmacokinetic properties”. In addition, in data set [2] (setting [6]), the time to peak (Tmax) turned out to be 1.00 h; the pharmacokinetic properties result is “good and comparable pharmacokinetic properties”. In data set [2] (setting [7]), the pharmacokinetic properties entry was “comparable pharmacokinetic properties”. In addition, the solubility result in data set [4] is “good solubility”. Moreover, in data set [5], the half-lives result is “long half-lives”, the clearance entry is reported as “low clearance”, the Tmax stood at 1.00 h and the systemic exposure result is reported as “high systemic exposure”.

The Tmax is the time from dosing to the highest level. As a reminder, the Vz is the apparent volume that relates the amount in the body to the concentration in plasma or blood.
